# pCIP destab = compounds decreasing mouse p/CIP protein stability; Q05BA5; F442A p/CIP-EGFP cells, EGFP fluorescence, 16 h; decrease of EGFP signal, % at 10 µM; actives 0.01% (n = 290,000); AID 1984;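 active means EGFP signal decrease of at least 30% at 10 µM or well 3 SD below plate mean, unless failing retest; inactive means the rest, including hits failing retest or dose response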
# Yeast UUG start-1 = modulators of yeast start codon fidelity, primary screen, whole organism, S. cerevisiae, single point, plate reader | AID 602363, 2012 | actives 0.13% (n = 350,000) | activity score, % at 18.7 µM | S. cerevisiae UUG-firefly luciferase reporter, luminescence/redox ratio;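 active means replicate mean at a twofold rise or more, about +100% in these data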;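 further: firefly luciferase made from a UUG start codon reports start codon fidelity; reporter light over untreated wells divided by growth signal over untreated wells; some hits fall short of that in this replicate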
# ABCB6 inh 2 = human ABCB6 transporter inhibition; Q9NP58; K562-ABCB6 porphyrin accumulation, flow cytometry, 1 h; stronger effect = lower value; fluorescence ratio to DMSO, % at 10 µM; actives 0.19% (n = 360,000); AID 602162;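 active means fluorescence ratio to DMSO below 75%, the collection mean minus 3 SD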;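 further: signal is porphyrin accumulated inside mitochondria; 100% equals median channel fluorescence of DMSO control wells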
# PKA-R1A act = activates the PKA-R1A holoenzyme complex | P00514+P68181 | PKA-R1A dissociation, Cy5-IP20 fluorescence polarization; scaled: DMSO 0%, 113 µM cGMP 100% | activation, % at 11.4 µM | actives 0.083% (n = 340,000);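 active means percent activation above the mean of all tested compounds plus 3 SD, cut at about 19% in these data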;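 further: higher means more PKAc released from R1A so a rise in polarization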
# Exocytosis inh = blocks lytic granule exocytosis. TALL-104 LAMP-1 surface exposure, flow cytometry; cells stimulated with thapsigargin and PMA. inhibition, % at 10 µM. actives 0.66% (n = 360,000). AID 651702;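 active means inhibition above about 55%, limit read from the data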
# PKA-R2B act = activates the human PKA-R2B holoenzyme complex; PKA-R2B holoenzyme dissociation, Cy5-IP20 fluorescence polarization; R2B truncated from residue 108, S112A mutant; 0% DMSO only, 100% 113 µM cGMP; actives 0.079% (n = 340,000); activation, % at 11.4 µM;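 active means activation above a cutoff set at the mean over all compounds plus 3 SD, cut at about 18% in these data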;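 further: higher means more holoenzyme dissociation and a rise in polarization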
# ABCB6 blocker 1 = blocks the human ABCB6 transporter; shares compounds with ABCB6 inh 2; K562-ABCB6 porphyrin accumulation, flow cytometry, 1 h; stronger effect = lower value; ratio response (% of DMSO), % at 10 µM; 700 tested, under 10 active; AID 602430;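 active means repeat-averaged ratio response below 75% of DMSO, the collection mean minus 3 SD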;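 further: median porphyrin fluorescence at 575 nm with 488 nm excitation from mitochondria; lower ratio means less porphyrin signal so ABCB6 inhibition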
# Yeast UUG start-2 = modulators of start codon recognition fidelity in yeast; shares compounds with Yeast UUG start-1; activation, % at 38 µM; 540 tested, under 10 active; S. cerevisiae UUG-start firefly luciferase, luminescence, 4 h; 100% means double the DMSO signal;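 active means signal increase whose fitted curve reaches an absolute level of 40 at a concentration under 10 µM; inactive means activity opposite to the expected increase, or the rest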
# An asterisk follows results filed as active; i = inactive; . = no result given. This is a sample that favours compounds with a hit; in the whole collection about 0.94% have one here.
# Sequence of screens – Exocytosis inh, PKA-R2B act, ABCB6 blocker 1, ABCB6 inh 2, PKA-R1A act, pCIP destab, Yeast UUG start-2, Yeast UUG start-1
> C[C@@H]1CN([C@@H](C)CO)C(=O)c2cc(C#CCN(C)C)cnc2O[C@@H]1CN(C)C(=O)Nc1cccc(F)c1
    ., ., ., ., ., ., ., 22
> C[C@@H]1CCCCO[C@H](CN(C)C(=O)c2ccccc2)[C@H](C)CN([C@@H](C)CO)C(=O)c2cc(NC(=O)Nc3ccc(F)cc3)ccc2O1
    ., ., ., ., ., ., ., 0
> CCN(CC)C(=O)[C@H]1CC(CC(=O)NCc2ccc(OC)c(OC)c2)C(=O)N2CCc3c([nH]c4ccccc34)[C@]12C (stereo partly drawn)
    1, 6, ., 95, -21, ., ., -5
> CCN(CC)C(=O)[C@H]1CC(CC(=O)NCc2ccc(OC)c(OC)c2)C(=O)N2CCc3c([nH]c4ccc(OC)cc34)[C@]12C (stereo partly drawn)
    -1, 3, 100, 64*, -2, ., ., -8
> CO[C@@H]1CN(C)C(=O)c2cc(NC(=O)c3ccccc3F)ccc2OC[C@@H](C)N(C(=O)c2ccccc2F)C[C@@H]1C
    ., ., ., ., ., ., ., 14
> COc1ccc(-n2nc(C(=O)NCC(=O)NCC3CCCO3)c3ccccc3c2=O)cc1 (stereo not drawn)
    1, -4, ., 97, 8, -8, ., -18
> COc1ccc(-n2nc(C(=O)NCC3CCCO3)c3ccccc3c2=O)cc1 (stereo not drawn)
    0, 2, 99, 16*, 3, -6, ., -2
> CCCCN(C(=O)c1cc(-c2ccncc2)nc2ccccc12)c1c(N)n(CC(C)C)c(=O)[nH]c1=O
    -4, -12, 100, 51*, -7, ., ., -3
> COc1cccc(-c2nc(NC(C)C)c3ccccc3n2)c1O
    2, -1, 99, 49*, 15, 7, ., -4
> O=C(NCCc1ccccc1)[C@@H]1[C@@H](CO)[C@@H]2Cn3c(cccc3=O)[C@H]1N2C(=O)C1CCCC1
    ., ., ., ., ., ., ., 0
> CCc1ccccc1NC(=O)c1cc(=O)c2ccccc2o1
    2, 2, 101, 67*, -6, 1, ., 0
> COc1ccc(C(=O)Nn2c(C)nc3ccccc3c2=O)cc1
    -2, 5, 100, 74*, -5, 6, ., .
> Cc1nc2ccccc2c(=O)n1NC(=O)c1ccc(C(C)(C)C)cc1
    4, -3, ., 95, 1, 3, ., -23
> COc1ccc(N2CCN(C(=O)CCCCCn3c(=S)[nH]c4ccc(N5CCOCC5)cc4c3=O)CC2)cc1
    -2, -8, 96, 73*, 2, ., ., -11
> C[C@@H]1CN([C@H](C)CO)S(=O)(=O)c2ccc(C#Cc3cccnc3)cc2O[C@@H]1CN(C)C
    ., ., ., ., ., ., ., 0
> O=C(O)CC/C(=C\c1ccc(Cl)c([N+](=O)[O-])c1)c1nc2ccccc2s1
    0, 2, 101, 72*, -12, -23, ., 4
> CC1CCN(C(=O)c2ccc(NC(=O)c3cccs3)cc2)CC1
    -2, 12, 102, 53*, 10, -9, ., -2
> COc1ccc(-c2cc(C(F)(F)F)c(C#N)c(SCC(=O)O)n2)cc1
    7, -4, ., 97, -8, 8, ., .
> Cc1ccc(-c2cc(C(F)(F)F)c(C#N)c(SCCC#N)n2)o1
    -2, -4, 103, 71*, -17, 0, ., 2
> CCCCNc1oc(-c2ccc(OC)cc2)nc1S(=O)(=O)c1ccccc1
    -2, 6, 99, 69*, -3, -19, ., -11
> Cc1csc(NC(=O)Cc2ccccc2Cl)n1
    3, 4, ., 98, 14, -10, ., -11
> COc1ccccc1NC(=O)Cc1nn(C)c(=O)c2ccccc12
    -2, -3, ., 91, -17, -12, -1, -19
> COc1cccc(OC)c1NC(=O)Cc1nn(C)c(=O)c2ccccc12
    -3, -6, ., 86, -10, -13, 5, -10
> Cn1nc(CC(=O)Nc2ccc(Oc3ccccc3)cc2)c2ccccc2c1=O
    ., ., ., ., ., ., i, .
> Cc1csc(NC(=O)Cc2nn(C)c(=O)c3ccccc23)n1
    0, 2, ., 90, -8, 1, -7, -18
> C[C@@H]1CN([C@H](C)CO)C(=O)c2cc(NS(=O)(=O)c3cn(C)cn3)ccc2O[C@@H](C)CCCCO[C@@H]1CN(C)Cc1ccncc1
    ., ., ., ., ., ., ., 6
> C[C@@H]1CN([C@@H](C)CO)C(=O)c2cc(NC(=O)Nc3ccc(F)cc3)ccc2O[C@@H]1CN(C)S(=O)(=O)c1ccccc1
    ., ., ., ., ., ., ., -13
> O=C(NCC[C@@H]1CC[C@H](NC(=O)c2ccc3c(c2)OCO3)[C@H](CO)O1)Nc1ccc(Cl)cc1
    ., ., ., ., ., ., ., 13
> CC(C)(C)OC(=O)N1CCN(c2ccc(NC(=O)Cn3nnc(-c4ccccc4)n3)cc2)CC1
    -1, -4, ., 86, -8, -10, ., -3
> Cn1nc(CC(=O)Nc2ccc(N3CCN(C(=O)OC(C)(C)C)CC3)cc2)c2ccccc2c1=O
    2, 7, ., 30*, -6, -5, 4, 736*

# Overlap with the part before: 5 compounds, followed by the next part.
# Sequence of screens – Exocytosis inh, PKA-R2B act, ABCB6 blocker 1, ABCB6 inh 2, PKA-R1A act, pCIP destab, Yeast UUG start-2, Yeast UUG start-1
> C[C@@H]1CN([C@H](C)CO)C(=O)c2cc(NS(=O)(=O)c3cn(C)cn3)ccc2O[C@@H](C)CCCCO[C@@H]1CN(C)Cc1ccncc1
    ., ., ., ., ., ., ., 6
> C[C@@H]1CN([C@@H](C)CO)C(=O)c2cc(NC(=O)Nc3ccc(F)cc3)ccc2O[C@@H]1CN(C)S(=O)(=O)c1ccccc1
    ., ., ., ., ., ., ., -13
> O=C(NCC[C@@H]1CC[C@H](NC(=O)c2ccc3c(c2)OCO3)[C@H](CO)O1)Nc1ccc(Cl)cc1
    ., ., ., ., ., ., ., 13
> CC(C)(C)OC(=O)N1CCN(c2ccc(NC(=O)Cn3nnc(-c4ccccc4)n3)cc2)CC1
    -1, -4, ., 86, -8, -10, ., -3
> Cn1nc(CC(=O)Nc2ccc(N3CCN(C(=O)OC(C)(C)C)CC3)cc2)c2ccccc2c1=O
    2, 7, ., 30*, -6, -5, 4, 736*
> COc1cc(NC(=O)Cc2nn(C)c(=O)c3ccccc23)cc(OC)c1
    0, 6, ., 97, 0, -22, 4, -9
> CCCNC(=O)N(C)C[C@@H]1Oc2ncc(-c3ccc(C(=O)N(C)C)cc3)cc2C(=O)N([C@@H](C)CO)C[C@H]1C
    ., ., ., ., ., ., i, 104*
> COc1ccccc1-c1cnc2c(c1)C(=O)N([C@@H](C)CO)C[C@H](C)[C@@H](CN(C)C(=O)c1cccnc1)O2
    ., ., ., ., ., ., i, 172*
> C[C@H](CO)N1C[C@H](C)[C@@H](CN(C)CC2CCOCC2)Oc2ncc(-c3cccc(F)c3)cc2C1=O
    ., ., ., ., ., ., i, 157*
> COc1ccc(-c2cnc3c(c2)C(=O)N([C@@H](C)CO)C[C@H](C)[C@@H](CN(C)C(=O)NC2CCCC2)O3)cc1
    ., ., ., ., ., ., i, 140*
> CC(C)NC(=O)N1C[C@@H]2[C@H](c3ccccc31)[C@@H](CO)N2C(=O)c1ccccc1
    ., ., ., ., ., ., ., -2
> C[C@H](CO)N1C[C@H](C)[C@H](CN(C)C(=O)Nc2cccc3ccccc23)Oc2c(NS(=O)(=O)c3ccccc3)cccc2C1=O
    ., ., ., ., ., ., ., -2
> O=c1[nH]c(/C=C\c2ccc(O)c(Cl)c2)nc(O)c1[N+](=O)[O-]
    11, -12, ., 101, -5, 2, 2, 167*
> C[C@@H]1CCCCO[C@H](CN(C)S(C)(=O)=O)[C@@H](C)CN([C@H](C)CO)C(=O)c2cc(NC(=O)CCC(F)(F)F)ccc2O1
    ., ., ., ., ., ., ., -17

# Assay outcomes deposited in PubChem by several laboratories.
